From patent US20150057180A1, “Methods and Kits for Analyzing Biomarkers in a Signal Transduction Pathway” (BioScale, Inc., priority 2012, published 2015)

Key:
Conditions in all cases: inhibitor (Afatinib 13 nM, Gefitinib 37 nM or Neratinib 92 nM) 2 hours prior to EGF 100 ng/ml 10 minutes
pMEK1 = test: AMMP pMEK1 assay, A431 cells
pp38 = test: AMMP pp38 assay, A431 cells
pERK1/2 = test: AMMP pERK1/2 assay, A431 cells
pHER3 = test: AMMP pHER3 assay, A431 cells

Compound: COc1cc2ncnc(Nc3ccc(F)c(Cl)c3)c2cc1OCCCN1CCOCC1 [gefitinib, Gefitinib]
- EGF stimulated phosphorylation of MEK1 (pMEK1): no significant effect
- EGF stimulated phosphorylation of p38 (pp38): no significant effect
- EGF stimulated phosphorylation of ERK1/2 (pERK1/2): no significant effect
- EGF stimulated phosphorylation of HER3 (pHER3): no significant effect
- EGF stimulated phosphorylation of HER3 (pHER3; listed as gefinitib): little efficacy
